Experimental data as given in publication PMC6033295, “The Effects of the Honey-Roasting Process on the Pharmacokinetics of the Six Active Compounds of Licorice” (Evidence-based Complementary and Alternative Medicine : eCAM, 2018).

How the values were obtained:
[1] = Pharmacokinetic study in rats after oral administration of raw/honey-roasting licorice water decoction (UPLC-MS/MS of plasma); format: in vivo, Wistar rats; conditions: for Cmax / Tmax / AUC0-24h: rat plasma, 2.7 g (crude drug)/kg, n = 5
Method: Healthy male Wistar rats (weighing 200 ± 20 g) were obtained from the Laboratory Animal Centre of Shanghai Jiao Tong University (Shanghai, China). […] All protocols and procedures were approved by the Shanghai Jiao Tong University Animal Care and Use Committee.
Chromatographic separation was performed on a ZORBAX Eclipse Plus C18 column (50 mm × 2.1 mm, 1.8 µm). […] The flow rate was set at 0.4 mL/min. The column temperature and injection volume were set at 40°C and 2.0 µL, respectively. An MS system operating in negative electrospray ionization mode was employed in this study. […] The DP for each compound and IS were -120, -100, -100, -100, -100, -80, and -100 V, respectively. The collision energy for each compound and IS were -58, -32, -42, -32, -32, -65, and -20 V, respectively. The ion spray needle voltage was set at -4500 V, and the source temperature was 500°C. Following optimization of the setting parameters, the ESI source was operated with the GS1, GS2, and CUR (Nitrogen) set at 35, 35, and 40 psi, respectively.
Fifty microliters of the plasma samples (or standard plasma samples and QC samples) were spiked with 5 µL of IS solution (10.00 µg/mL) and 200 µL of acetonitrile. The mixture was vortexed for 30 s and centrifuged at 14,000 rpm for 15 min at 4°C. The supernatant was collected and evaporated in a 37°C water bath under a nitrogen stream. The residue was redissolved with 500 µL of 70% acetonitrile.
After being housed in a controlled environment for a week, rats were randomly divided into three groups (n = 5 for each group) and were then orally administered a raw, 25% honey-roasting, or 50% honey-roasting licorice water decoction at a dosage of 2.7 g (crude drug)/kg. Blood samples of 0.15 mL were taken from the suborbital vein into heparinized tubes at 0.17, 0.5, 1, 1.5, 2, 2.5, 3, 4, 6, 8, 12, and 24 h after oral administration of the licorice water decoction. The blood samples were immediately centrifuged at 10,000 rpm for 15 min. The separated plasma samples were frozen at -80°C before analysis.
The pharmacokinetic parameters of the six compounds were calculated by […] 4.4.1 (Thermo Electron Corporation, Philadelphia, PA, USA) software. […] Data were presented as the mean ± SD. Statistical analyses of all the data obtained were evaluated using one-way ANOVA (SPSS 17.0).

[2] = Stability of six compounds in rat plasma (QC samples); format: in vitro ADME; conditions: n = 6
Method: The stabilities of the six compounds in rat plasma were evaluated by analyzing QC samples under different conditions. […] Long-term stability was tested by storing QC samples at -80°C for one month. RSD was evaluated by analyzing six replicate samples. The stability of the six compounds was evaluated under various conditions. QC samples stored in a freezer at -80°C remained stable for one month. […] The stability data were within the acceptance range of 85%-115% (Table 3).

[3] = oral 25% honey-roasting licorice water decoction
[4] = oral 50% honey-roasting licorice water decoction
[5] = oral raw licorice water decoction

## liquiritin apioside [LA]
[1]; 50% honey-roasting group vs raw licorice group, rat, oral
  Cmax lower than in the raw licorice group: 43.7%
[1]; [3]
  Cmax: 38.49 ± 13.09 ng/mL
  Tmax: 48 min
[1]; [4]
  AUC0-24h: 56.30 ± 14.34 ng·h/mL
  Cmax: 31.21 ± 8.09^∗ ng/mL
  Tmax: 54 min
[1]; [5]
  AUC0-24h: 82.31 ± 19.00 ng·h/mL
  Cmax: 55.46 ± 13.51 ng/mL
  Tmax: 42 min
[2]; At 4°C for 24 h, postpreparative QC sample in autosampler, high concentration level
  Stability, Average: 98.3%
[2]; At 4°C for 24 h, postpreparative QC sample in autosampler, low concentration level
  Stability, Average: 97.3%
[2]; At 4°C for 24 h, postpreparative QC sample in autosampler, medium concentration level
  Stability, Average: 92.4%
[2]; At -80°C for 1 month, rat plasma QC sample, high concentration level
  Stability, Average: 95.3%
[2]; At -80°C for 1 month, rat plasma QC sample, low concentration level
  Stability, Average: 93.2%
[2]; At -80°C for 1 month, rat plasma QC sample, medium concentration level
  Stability, Average: 93.7%
